Paper PMC6917733 (Scientific Reports, 2019)

Assays:
human OTR [1] = molecular target: T1, human OTR (Homo sapiens, UniProt P30559); experiment: IP1 accumulation (IP-One Gq assay), HEK293 cells expressing OTR
T1 sequence (P30559 1-389): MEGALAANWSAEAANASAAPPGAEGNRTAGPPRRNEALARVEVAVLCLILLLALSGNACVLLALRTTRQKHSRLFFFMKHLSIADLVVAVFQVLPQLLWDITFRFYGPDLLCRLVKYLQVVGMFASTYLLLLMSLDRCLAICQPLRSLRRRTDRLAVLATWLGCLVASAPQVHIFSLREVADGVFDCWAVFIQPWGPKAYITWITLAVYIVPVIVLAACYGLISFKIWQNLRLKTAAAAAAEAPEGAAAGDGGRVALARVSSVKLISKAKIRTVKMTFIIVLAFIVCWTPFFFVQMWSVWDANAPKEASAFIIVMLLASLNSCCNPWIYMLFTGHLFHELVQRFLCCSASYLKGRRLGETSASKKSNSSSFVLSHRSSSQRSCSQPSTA

human OTR [2] = molecular target: T1, human OTR; experiment: β-arrestin-2 recruitment BRET at OTR

Structure (SMILES): CC[C@H](C)[C@@H]1NC(=O)[C@H](Cc2ccc(O)cc2)NC(=O)[C@@H](N)CSSC[C@@H](C(=O)N2CCC[C@H]2C(=O)N[C@@H](CC(C)C)C(=O)NCC(N)=O)NC(=O)[C@H](CC(N)=O)NC(=O)[C@H](CCC(N)=O)NC1=O [OT, oxytocin, reference compound]
- Emax (human OTR [1]): 100%
- Emax (human OTR [2]): 100%
